Source: ChEMBL document CHEMBL4118252, “Identification of novel thiazolo[5,4-d]pyrimidine derivatives as human A1 and A2A adenosine receptor antagonists/inverse agonists” (Bioorg Med Chem, 2018)

Biological target: Adenosine receptor A2a (Homo sapiens, UniProt P29274)
Assay: Inverse agonist activity at human A2A adenosine receptor expressed in CHO cells assessed as inhibition of basal cAMP level after 30 mins by Alphascreen assay relative to control
Assay type: functional, cell-based
Method in brief: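 hA2A CHO cells exposed to varied compound concentrations without agonist, measuring decrease of basal cAMP; AlphaScreen detection (30 min acceptor beads, then 1 h donor beads with biotinylated cAMP). IC50 from sigmoid nonlinear fit, Emax efficacy; mean ± SEM.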

## COc1ccccc1CNc1nc(N)c2nc(-c3ccccc3)sc2n1
  Emax: 55%
